Measurements as given in PMC8903741.

Protein sequences, listed by entry. Tags and fused reporters are not part of them. Lines headed by an entry give the natural chain unless they say otherwise; changes in a name come on top.
UniProt P14780: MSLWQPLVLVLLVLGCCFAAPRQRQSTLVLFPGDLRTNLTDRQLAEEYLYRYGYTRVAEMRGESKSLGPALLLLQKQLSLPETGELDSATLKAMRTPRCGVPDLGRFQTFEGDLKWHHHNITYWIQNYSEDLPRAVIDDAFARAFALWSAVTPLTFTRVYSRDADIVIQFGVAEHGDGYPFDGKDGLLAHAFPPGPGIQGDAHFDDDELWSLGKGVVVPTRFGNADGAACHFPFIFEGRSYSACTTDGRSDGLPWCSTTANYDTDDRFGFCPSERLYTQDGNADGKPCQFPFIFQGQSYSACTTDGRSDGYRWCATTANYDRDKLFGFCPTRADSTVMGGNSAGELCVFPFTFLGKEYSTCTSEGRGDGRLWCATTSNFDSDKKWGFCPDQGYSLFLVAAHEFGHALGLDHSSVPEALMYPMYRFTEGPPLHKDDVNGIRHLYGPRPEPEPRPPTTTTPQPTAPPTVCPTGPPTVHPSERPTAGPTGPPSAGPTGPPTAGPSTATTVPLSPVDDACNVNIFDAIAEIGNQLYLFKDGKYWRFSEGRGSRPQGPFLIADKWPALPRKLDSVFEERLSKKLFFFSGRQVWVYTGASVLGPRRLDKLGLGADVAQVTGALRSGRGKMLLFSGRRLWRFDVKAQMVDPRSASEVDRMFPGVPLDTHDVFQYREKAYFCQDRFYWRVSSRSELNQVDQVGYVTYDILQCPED

Target: recombinant anti-hMMP9 antibody (full-sized, VH and VL of GS-5745, human IgG4 constant region, human kappa constant region) (human)
Experiment: ELISA; sandwich ELISA as above with antibody of clone #6-5 immobilised and different concentrations of hMMP9; dose-response curves fitted to a four-parameter equation

limit of detection (LOD): 28.9 ng
Substance: human matrix metalloproteinase 9 (from UniProt P14780 20-707) (enzyme)
